# Assay results: patent US20170128467A1, “ANTIMICROBIAL PHARMACEUTICAL COMPOSITIONS WITH MULTIPLE DRUG RESISTANCE INHIBITING PROPERTIES” (priority 2014, published 2017)
# Amino acid sequences for entries named in this document (tags omitted). A change or cut given only in a name is not applied to a line headed by its entry.
# UniProt P33302: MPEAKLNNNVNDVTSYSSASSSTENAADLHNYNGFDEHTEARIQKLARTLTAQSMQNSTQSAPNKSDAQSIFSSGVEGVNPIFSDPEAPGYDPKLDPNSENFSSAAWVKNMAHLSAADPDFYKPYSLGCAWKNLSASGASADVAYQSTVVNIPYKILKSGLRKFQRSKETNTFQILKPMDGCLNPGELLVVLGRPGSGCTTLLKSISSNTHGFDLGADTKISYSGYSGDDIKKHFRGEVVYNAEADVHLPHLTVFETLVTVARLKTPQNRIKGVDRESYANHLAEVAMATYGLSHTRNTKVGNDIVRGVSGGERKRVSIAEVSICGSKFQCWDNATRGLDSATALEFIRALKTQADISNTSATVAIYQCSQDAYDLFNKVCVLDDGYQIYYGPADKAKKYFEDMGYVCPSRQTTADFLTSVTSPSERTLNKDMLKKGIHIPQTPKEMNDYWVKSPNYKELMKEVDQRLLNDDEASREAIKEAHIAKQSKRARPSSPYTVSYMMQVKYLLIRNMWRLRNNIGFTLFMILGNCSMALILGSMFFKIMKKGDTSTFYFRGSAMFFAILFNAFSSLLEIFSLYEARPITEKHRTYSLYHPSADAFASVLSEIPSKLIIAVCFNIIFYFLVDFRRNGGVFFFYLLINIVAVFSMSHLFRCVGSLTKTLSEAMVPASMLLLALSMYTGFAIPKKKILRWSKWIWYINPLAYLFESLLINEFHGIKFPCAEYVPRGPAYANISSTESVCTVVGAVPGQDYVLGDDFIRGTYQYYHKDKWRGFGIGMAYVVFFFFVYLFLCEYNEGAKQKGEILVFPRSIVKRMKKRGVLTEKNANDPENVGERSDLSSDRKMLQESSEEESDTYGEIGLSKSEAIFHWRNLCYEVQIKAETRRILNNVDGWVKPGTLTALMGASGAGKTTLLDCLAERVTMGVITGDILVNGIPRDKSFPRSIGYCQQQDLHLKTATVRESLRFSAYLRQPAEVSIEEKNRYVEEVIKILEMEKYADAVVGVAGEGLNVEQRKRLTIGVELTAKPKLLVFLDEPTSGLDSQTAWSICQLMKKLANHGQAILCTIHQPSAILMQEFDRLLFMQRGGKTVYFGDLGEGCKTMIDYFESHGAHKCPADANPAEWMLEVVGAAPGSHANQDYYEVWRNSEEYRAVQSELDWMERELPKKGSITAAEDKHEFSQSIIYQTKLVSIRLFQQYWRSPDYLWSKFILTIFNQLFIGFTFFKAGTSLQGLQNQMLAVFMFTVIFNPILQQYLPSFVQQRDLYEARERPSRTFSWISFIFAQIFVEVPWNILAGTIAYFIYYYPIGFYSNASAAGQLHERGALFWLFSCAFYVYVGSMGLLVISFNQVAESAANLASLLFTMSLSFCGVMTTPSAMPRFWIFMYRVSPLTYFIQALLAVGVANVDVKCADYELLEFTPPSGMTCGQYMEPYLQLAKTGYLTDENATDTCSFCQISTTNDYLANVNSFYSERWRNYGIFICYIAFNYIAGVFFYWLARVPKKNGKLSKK
# Molecular target: T1, MDR pumps (Pdr5p) of yeast cells (Saccharomyces cerevisiae, UniProt P33302)
# T1 construct: We measured the efflux of R6G from intact yeast cells using fluorometric method; endogenous in cells; host or cells: S. cerevisiae W303-1A (WT); AD1-8 as MDR-negative control
# Format: cell-based
# Conditions: 2 μM compound
# Protocol: The ordinate corresponds to the ratio of slopes in a and b.
# To measure the relative rate of rhodamine 6G efflux we used fluorometric assay implemented by Kolaczkowsky et al., with few modifications. Cells were grown overnight in 40 ml in liquid YPD to density of 0.5-1*10^7 cells/ml, washed twice with cold sterile water and resuspended in 10 ml phosphate buffer saline supplemented with 5 mM 2-deoxyglucose and 2.5 mM 2,4-dinitrophenol. Cell suspension was incubated for 45 minutes on a rotatory shaker, then the inhibitors were removed by two cycles of centrifugation/resuspension in cold water. The energy deprived cells were resuspended in 10 ml of PBS and then stained with R6G (10 μM) for 30 minutes. Then cell suspension was pelleted, resuspended in equal volume of PBS and stored on ice for 1-5 hours. The measurements of efflux were performed with FluoroMax-3 fluorometer system with exication wavelength set to 480 nm, and emission wavelength set to 560 nm. The R6G efflux was initiated by addition of 0.1% glucose, cell density in fluorometric cuvette was 10^6 cells/ml.
substance,measurement,setting,value
"cyanide p-trifluoro-methoxyphenyl hydrazone [FCCP, reference compound]",inhibition of glucose-induced R6G efflux from yeast cells,,partially prevent R6G efflux
same,inhibition of glucose-induced R6G efflux from yeast cells pretreated with NaN3,cells pretreated with 10 mM NaN3,inhibits glucose-induced R6G efflux
